Results taken from ChEMBL document CHEMBL3813640, “Design and synthesis of potent and selective pyridazin-4(1H)-one-based PDE10A inhibitors interacting with Tyr683 in the PDE10A selectivity pocket” (Bioorg Med Chem, 2016).

By UniProt entry, the sequences of proteins in these tests, tags left out. Where a name states a change or a piece, a line headed by the entry shows the natural chain unless it says otherwise.
UniProt Q9HCR9: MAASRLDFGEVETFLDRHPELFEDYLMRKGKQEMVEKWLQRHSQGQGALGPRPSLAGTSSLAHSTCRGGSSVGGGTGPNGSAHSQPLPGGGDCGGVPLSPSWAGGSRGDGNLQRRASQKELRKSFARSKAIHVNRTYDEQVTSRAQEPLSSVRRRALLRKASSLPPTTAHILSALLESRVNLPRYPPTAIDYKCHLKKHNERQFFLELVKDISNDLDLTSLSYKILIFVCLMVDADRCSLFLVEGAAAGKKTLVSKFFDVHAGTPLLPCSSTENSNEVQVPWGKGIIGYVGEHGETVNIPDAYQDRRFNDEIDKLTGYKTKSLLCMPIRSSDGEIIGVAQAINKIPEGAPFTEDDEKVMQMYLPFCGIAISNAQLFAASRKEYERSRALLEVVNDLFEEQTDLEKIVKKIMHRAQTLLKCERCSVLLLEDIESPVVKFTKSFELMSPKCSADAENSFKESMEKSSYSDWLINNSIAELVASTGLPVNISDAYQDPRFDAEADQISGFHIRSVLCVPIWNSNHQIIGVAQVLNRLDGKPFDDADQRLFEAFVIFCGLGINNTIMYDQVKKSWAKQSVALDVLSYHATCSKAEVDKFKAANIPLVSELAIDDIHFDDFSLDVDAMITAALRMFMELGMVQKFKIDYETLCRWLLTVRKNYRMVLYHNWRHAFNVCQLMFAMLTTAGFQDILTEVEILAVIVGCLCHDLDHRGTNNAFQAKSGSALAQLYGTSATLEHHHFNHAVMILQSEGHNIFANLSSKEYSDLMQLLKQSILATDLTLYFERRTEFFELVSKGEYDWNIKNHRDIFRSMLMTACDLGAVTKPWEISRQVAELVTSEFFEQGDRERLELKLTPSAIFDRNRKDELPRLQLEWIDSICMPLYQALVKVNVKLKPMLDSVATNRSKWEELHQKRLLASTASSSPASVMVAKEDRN

Target: Dual 3',5'-cyclic-AMP and -GMP phosphodiesterase 11A (Homo sapiens, UniProt Q9HCR9)
Test: Inhibition of human PDE11A4

IC50: > 10 µM
SMILES: O=c1c(OCCN2CCn3c2nc2ccccc23)cn(CC2CC2)nc1-c1ccnn1-c1ccccc1
